Measurements published in article PMC2919064 (Journal of medicinal chemistry, 2010).

Molecular target: T1, HDAC10 (Homo sapiens, UniProt Q969S8)
T1 sequence (Q969S8 1-669): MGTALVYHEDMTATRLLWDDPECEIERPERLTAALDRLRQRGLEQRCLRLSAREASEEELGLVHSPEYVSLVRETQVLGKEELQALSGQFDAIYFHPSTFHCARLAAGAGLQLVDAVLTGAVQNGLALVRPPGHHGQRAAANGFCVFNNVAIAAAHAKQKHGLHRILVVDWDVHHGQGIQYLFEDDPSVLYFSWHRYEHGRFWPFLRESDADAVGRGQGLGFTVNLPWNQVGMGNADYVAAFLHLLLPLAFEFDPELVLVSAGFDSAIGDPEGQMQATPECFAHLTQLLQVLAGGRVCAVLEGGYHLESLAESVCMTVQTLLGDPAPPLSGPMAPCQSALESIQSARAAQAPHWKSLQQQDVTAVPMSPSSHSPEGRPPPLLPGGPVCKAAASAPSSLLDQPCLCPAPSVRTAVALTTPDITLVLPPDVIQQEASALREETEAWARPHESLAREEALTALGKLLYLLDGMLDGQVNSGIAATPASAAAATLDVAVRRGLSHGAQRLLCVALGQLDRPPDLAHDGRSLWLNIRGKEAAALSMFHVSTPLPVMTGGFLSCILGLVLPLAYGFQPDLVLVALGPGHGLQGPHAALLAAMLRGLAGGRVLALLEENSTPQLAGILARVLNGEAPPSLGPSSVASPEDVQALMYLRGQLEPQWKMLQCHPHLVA
Test: HDAC isoform inhibition assay
Settings: read-out: IC50 HDAC10; tested at Nanosyn; 17 hours at 25 °C

Structure (SMILES): O=C(CCCCCCC(=O)Nc1ccccc1)NO [SAHA (1a), suberoylanilide hydroxamic acid, reference compound]
- IC50: 72 nM
